Source: US20090191253A2 (Creabilis Therapeutics S.P.A., priority 2005, published 2009)

Molecular target: T1, MAP2K3 (Homo sapiens, UniProt P46734, S218E/T222E)
T1 sequence (P46734 1-347 S218E/T222E): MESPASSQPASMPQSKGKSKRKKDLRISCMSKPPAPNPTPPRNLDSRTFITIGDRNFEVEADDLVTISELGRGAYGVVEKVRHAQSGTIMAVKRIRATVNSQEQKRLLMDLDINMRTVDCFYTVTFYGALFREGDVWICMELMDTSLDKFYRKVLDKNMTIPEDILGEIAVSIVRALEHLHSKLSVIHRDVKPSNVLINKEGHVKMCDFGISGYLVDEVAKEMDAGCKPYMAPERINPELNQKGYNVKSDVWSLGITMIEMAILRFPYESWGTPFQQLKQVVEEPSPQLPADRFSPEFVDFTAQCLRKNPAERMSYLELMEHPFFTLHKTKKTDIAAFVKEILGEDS
Assay: biochemical

In the case of `COC(=O)[C@]1(O)CC2O[C@@]1(C)n1c3ccccc3c3c4c(c5c6ccccc6n2c5c31)C(=O)NC4` [K-252a], the inhibition at 0.2 µM is reported as 100%.
